Measurements taken from US11033547B2, “Carboxamide-pyrimidine derivatives as SHP2 antagonists” (Merck Patent GmbH, priority 2019, dated 2021).

Protein sequences, listed by entry. Tags and fused reporters are not part of them. Lines headed by an entry give the natural chain unless they say otherwise; changes in a name come on top.
UniProt Q12809: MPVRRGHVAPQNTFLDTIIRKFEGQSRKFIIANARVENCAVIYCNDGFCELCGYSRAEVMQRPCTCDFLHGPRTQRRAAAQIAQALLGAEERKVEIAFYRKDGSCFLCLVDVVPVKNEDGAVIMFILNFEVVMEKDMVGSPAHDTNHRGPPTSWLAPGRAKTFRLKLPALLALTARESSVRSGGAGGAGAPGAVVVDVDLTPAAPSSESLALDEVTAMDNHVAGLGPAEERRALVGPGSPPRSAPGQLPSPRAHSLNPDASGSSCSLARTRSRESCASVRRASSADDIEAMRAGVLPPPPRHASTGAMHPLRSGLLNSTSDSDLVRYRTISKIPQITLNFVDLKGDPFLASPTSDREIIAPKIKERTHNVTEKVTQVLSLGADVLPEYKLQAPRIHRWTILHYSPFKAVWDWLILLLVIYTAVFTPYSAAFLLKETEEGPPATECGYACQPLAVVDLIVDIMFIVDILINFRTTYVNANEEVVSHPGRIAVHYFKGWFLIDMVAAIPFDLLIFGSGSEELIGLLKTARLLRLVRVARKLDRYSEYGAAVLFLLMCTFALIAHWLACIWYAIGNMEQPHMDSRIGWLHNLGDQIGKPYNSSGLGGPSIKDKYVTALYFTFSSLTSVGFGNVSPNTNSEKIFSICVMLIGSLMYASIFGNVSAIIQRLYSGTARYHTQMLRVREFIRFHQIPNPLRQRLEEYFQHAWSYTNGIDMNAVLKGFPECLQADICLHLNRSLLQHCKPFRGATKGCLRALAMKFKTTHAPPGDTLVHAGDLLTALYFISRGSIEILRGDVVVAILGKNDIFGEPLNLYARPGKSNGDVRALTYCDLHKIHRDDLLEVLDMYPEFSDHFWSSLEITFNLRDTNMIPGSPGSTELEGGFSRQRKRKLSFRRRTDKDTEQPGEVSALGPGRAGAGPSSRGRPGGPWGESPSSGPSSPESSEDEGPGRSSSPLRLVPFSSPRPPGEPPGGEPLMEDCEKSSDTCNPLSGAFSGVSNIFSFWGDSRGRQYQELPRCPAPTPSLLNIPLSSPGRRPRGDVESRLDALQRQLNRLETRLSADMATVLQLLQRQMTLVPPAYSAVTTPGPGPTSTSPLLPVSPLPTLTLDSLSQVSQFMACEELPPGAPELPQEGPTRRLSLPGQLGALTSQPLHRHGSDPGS

Molecular target: Kv11.1 (hERG) ion channel (Homo sapiens (Human), UniProt Q12809)
Type: cell-based
Details: ratio of hERG Ki (patch clamp) to pERK IC50 in KYSE520
Experimental: Inhibition of the ion channel hErg (or Kv11.1) current causes QT interval prolongation resulting in potentially fatal ventricular tachyarrhythmia called Torsade de Pointes.
hERG ion channel activity was assessed using a patch clamp technique in stable Kv11.1 (hERG) transfected human embryonic kidney cell line (HEK293). Whole cell recordings were carried out with an automated patch clamp device Patchliner™ from Nanion Technologies, Munich following manufacturer recommendation. Different concentrations of the test compound or reference, quinidine, were applied to whole cells suspension and current was measured using a pulse pattern with fixed amplitudes.

## 2-((S)-3-amino-3H-spiro[benzofuran-2,4′-piperidin]-1′-yl)-5-(2,3-dichlorophenyl)-6-methylpyrimidine-4-carboxamide [Compound 122]
  Split between hErg and cell activity Ki(patch Clamp)/IC50 (KYSE): >50
